From PubChem BioAssay AID2549 (National Center for Advancing Translational Sciences (NCATS), 2010)
The entries are a selection whose mix differs from that of the whole data set. Active and inactive are the calls of the source. Calls come from the whole dose curve; as a rule, active = well fitted inhibition curve with a large enough effect; inconclusive = small, poorly fitted or top-dose-only effect; inactive = flat fitted curve, though single readings scatter.

Chains of the proteins cited; added tags and fusions are not shown.
UniProt P46063, whole entry: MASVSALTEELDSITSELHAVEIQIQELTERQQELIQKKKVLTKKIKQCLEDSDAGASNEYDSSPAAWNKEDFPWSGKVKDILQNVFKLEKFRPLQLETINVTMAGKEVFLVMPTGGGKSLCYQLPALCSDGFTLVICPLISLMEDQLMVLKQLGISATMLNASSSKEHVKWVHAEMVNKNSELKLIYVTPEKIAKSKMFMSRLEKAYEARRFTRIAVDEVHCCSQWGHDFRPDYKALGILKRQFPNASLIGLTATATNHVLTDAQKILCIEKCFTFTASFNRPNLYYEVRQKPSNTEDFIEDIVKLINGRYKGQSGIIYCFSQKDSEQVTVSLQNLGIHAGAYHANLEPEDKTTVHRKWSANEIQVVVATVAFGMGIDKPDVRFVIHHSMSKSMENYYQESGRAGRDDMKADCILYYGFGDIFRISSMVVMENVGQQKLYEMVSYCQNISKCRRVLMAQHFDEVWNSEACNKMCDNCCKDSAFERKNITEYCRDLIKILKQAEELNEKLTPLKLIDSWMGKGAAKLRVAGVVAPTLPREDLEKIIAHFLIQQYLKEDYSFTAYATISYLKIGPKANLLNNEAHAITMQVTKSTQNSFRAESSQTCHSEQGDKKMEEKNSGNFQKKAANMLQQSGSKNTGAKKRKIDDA

biological target: ATP-dependent DNA helicase Q1 (Homo sapiens) (UniProt P46063); test: qHTS Assay for Inhibitors of RecQ-Like Dna Helicase 1 (RECQ1); conditions: RECQ1 DNA unwinding, red fluorescence kinetic read; activity, negative = inhibition: at 57.3 µM (top of the series) unless noted; note: nearly all actives have a fitted effect of over 30% in size;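 for activity, negative = inhibition: plate controls were vehicle for no effect and no enzyme for full effect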
Text: Survival of cells and the faithful propagation of the genome depend on elaborate mechanisms of detecting and repairing DNA damage. Treatment of advanced cancer relies on radiation therapy or chemotherapy, which kill cancer cells by causing extensive DNA damage. It is often found, that cancer cells develop resistance to therapy through enhanced activity of DNA repair functions; this has led to an increased interest in developing drugs that interfere with DNA repair, which could sensitize cancer cells to conventional therapy.
This validation qHTS assay pertains to human RECQ1, which is important in resolving abnormal DNA structures formed during replication or homologous recombination. Shutting down the expression of RECQ1 leads to chromosomal instability and higher radiation sensitivity in cultured cells.
The validation assay was a fluorescence quenching based kinetic qHTS for RECQ1 Helicase DNA unwinding. The activity was measured as ATP-dependent separation of a 20-bp DNA duplex extended by 30-nt single-stranded tails (forked duplex). The forked DNA substrate was tagged with rhodamine fluorophore (carboxytetramethyl rhodamine, TAMRA) and BHQ-2 (Black Hole Quencher 2) dark quencher. Strand separation results in an increase in the fluorescence of TAMRA (excitation 525 nm, emission 598 nm). This substrate construct operates in a red-shifted region where very few compound library members have been noted to fluoresce (PubChem AIDs 593 and 594). An additional feature of the assay is the inclusion of 2.5 ug/ml poly (dIdC), to reduce interference by compounds such as DNA intercalators, a major source of false inhibitors.
Opher Gileadi, Structural Genomics Consortium, University of Oxford
Screening Center PI: Austin, C.P.
Screening Center: NIH Chemical Genomics Center [NCGC]
Three uL of reaction buffer (25 mM Tris-HCl (pH 8.0), 5 mM NaCl, 2 mM MgCl2, 1mM DTT, 0.01% Tween- 20, and 2.5 ug/ml poly(dI-dC), including enzyme (50 nM RECQ1T1), were dispensed into a 1536-well Greiner black assay plate via solenoid-valve based nanoliter dispensers. Compounds (23 nl each in columns 5-48) and control (23 nl each in column 2 as dose-response) were transferred via a Kalypsys pintool equipped with a 1536-pin array. The plates were incubated for 15 min at room temperature, and then 1 ul of substrates (200 nM DNA and 2 mM ATP, final concentrations) was added to start the reaction. The plate was transferred into a ViewLux high-throughput CCD imager where the reaction progress was measured in a discontinuous kinetic mode (two reads spaced 2 hours apart, with intermediate room temperature incubation of the covered assay plate) by using standard red-fluorescence optics (excitation filter 525 nm, emission filter 598 nm). Enzyme-free and vehicle (DMSO) controls were included for signal normalization.

For Cc1cc(C)cc(OP(C)(N)=O)c1 (stereo unspecified), which activity, negative = inhibition is on record?
Its activity, negative = inhibition is inactive: -2.13%.

COc1ccccc1OP(C)(=O)Nc1cc(Cl)ccc1C (stereo unspecified) was tested. Which activity, negative = inhibition did it give?
Its activity, negative = inhibition is inactive: -7.45%.

How did the activity, negative = inhibition turn out when COc1ccc(OP(C)(=O)Nc2cccc(F)c2)cc1 (stereo unspecified) was run?
The activity, negative = inhibition was inactive: -7.9%.

For COc1ccccc1OP(C)(=O)Nc1ccc(C)cc1 (stereo unspecified), which activity, negative = inhibition is on record?
Its activity, negative = inhibition is inactive: 7.37%.

Cc1ccc(NP(C)(=O)Oc2ccccc2)c(C)c1 (stereo unspecified) was tested. Which activity, negative = inhibition did it give?
Its activity, negative = inhibition is inactive: -9.6%.

With CCOC(=O)c1ccc(NP(C)(=O)Oc2ccccc2)cc1 (stereo unspecified) as the molecule, how does the activity, negative = inhibition read?
The activity, negative = inhibition was “inactive”.

For O=[N+]([O-])c1ccc2c(c1)C=Nc1ccccc1O2, which activity, negative = inhibition is on record?
Its activity, negative = inhibition is “inactive”.

For CC(C)(C)c1ccc(OP(C)(=O)Nc2ccc(SC(F)(F)F)cc2)cc1 (stereo unspecified), which activity, negative = inhibition is on record?
Its activity, negative = inhibition is inactive: -6.35%.

How did the activity, negative = inhibition turn out when Cc1cccc(C)c1OP(C)(N)=O (stereo unspecified) was run?
Its activity, negative = inhibition is inactive: -0.405%.

Which activity, negative = inhibition does the source give for O=C(O)C(O)(c1ccccc1)c1ccccc1 here?
The activity, negative = inhibition was inactive: -11.4%.

For O=C(O)C1(O)c2ccccc2-c2ccccc21, which activity, negative = inhibition is on record?
Its activity, negative = inhibition is inactive: -0.324%.

Which activity, negative = inhibition does the source give for O=[N+]([O-])[O-].[NH4+] here?
Its activity, negative = inhibition is inactive: -10.6%.

With CCN(CC)CCCOC(=O)C(O)(c1ccccc1)c1ccccc1 as the molecule, how does the activity, negative = inhibition read?
The activity, negative = inhibition was inactive: -2.76%.

With CP(=O)(Nc1ccccn1)Oc1ccc(Cl)cc1 (stereo unspecified) as the molecule, how does the activity, negative = inhibition read?
Its activity, negative = inhibition is inactive: -2.61%.

CCOC(=O)c1ccc(NP(C)(=O)Oc2ccc(OC)cc2)cc1 (stereo unspecified) was tested. Which activity, negative = inhibition did it give?
The activity, negative = inhibition was inactive: -8.09%.

How did the activity, negative = inhibition turn out when CCOP(C)(=S)SCC(=O)NC(C)C(=O)O (stereo unspecified) was run?
Its activity, negative = inhibition is inactive: 16.8%.

With CP(=O)(NC(=O)Nc1ccccc1)Oc1ccccc1 (stereo unspecified) as the molecule, how does the activity, negative = inhibition read?
Its activity, negative = inhibition is inactive: -1.01%.

How did the activity, negative = inhibition turn out when CCc1ccc(OP(C)(=O)N2CCN(c3ccc([N+](=O)[O-])cc3)CC2)cc1 (stereo unspecified) was run?
Its activity, negative = inhibition is inactive: -5.94%.

With Cc1cc(C)cc(OP(C)(=O)Nc2ccc(SC(F)(F)F)cc2)c1 (stereo unspecified) as the molecule, how does the activity, negative = inhibition read?
Its activity, negative = inhibition is “inactive”.

With Cc1cccc(C)c1OP(C)(=O)Nc1ccc(SC(F)(F)F)cc1 (stereo unspecified) as the molecule, how does the activity, negative = inhibition read?
The activity, negative = inhibition was inactive: -4.05%.

Which activity, negative = inhibition does the source give for CP(=O)(Nc1ccc(SC(F)(F)F)cc1)Oc1ccc(Cl)cc1 (stereo unspecified) here?
The activity, negative = inhibition was inactive: -3.84%.

For CP(=O)(Oc1ccccc1)OC(c1ccccc1)C(F)(F)F (stereo unspecified), which activity, negative = inhibition is on record?
The activity, negative = inhibition was “inactive”.

With CP(=O)(Nc1ccccc1Br)Oc1ccccc1 (stereo unspecified) as the molecule, how does the activity, negative = inhibition read?
The activity, negative = inhibition was inactive: -5.98%.

For COc1ccccc1OP(C)(=O)Nc1ccccc1 (stereo unspecified), which activity, negative = inhibition is on record?
The activity, negative = inhibition was inactive: -2.92%.

For CP(=S)(Nn1cnnc1)Oc1ccccc1 (stereo unspecified), which activity, negative = inhibition is on record?
The activity, negative = inhibition was inactive: -13.8%.

How did the activity, negative = inhibition turn out when CCCOc1ccc(NP(C)(=O)Oc2ccc(Cl)cc2)cc1 (stereo unspecified) was run?
The activity, negative = inhibition was inactive: -6.67%.

With CP(=O)(Nc1ccc(SC(F)(F)F)cc1)Oc1ccccc1 (stereo unspecified) as the molecule, how does the activity, negative = inhibition read?
The activity, negative = inhibition was “inactive”.

With COc1ccccc1OP(C)(=O)Nc1c(C)cccc1C (stereo unspecified) as the molecule, how does the activity, negative = inhibition read?
Its activity, negative = inhibition is inactive: -10%.

Which activity, negative = inhibition does the source give for CN1CCCCC1COC(=O)C1(O)c2ccccc2CCc2ccccc21 (stereo unspecified) here?
Its activity, negative = inhibition is inactive: -2.99%.

For O=[N+]([O-])c1cc([N+](=O)[O-])c(Nc2nnnn2CCO)c([N+](=O)[O-])c1, which activity, negative = inhibition is on record?
Its activity, negative = inhibition is “inactive”.

Which activity, negative = inhibition does the source give for Cc1nc2ccc3ccccc3c2s1.O=[N+]([O-])c1cc([N+](=O)[O-])c(O)c([N+](=O)[O-])c1 here?
The activity, negative = inhibition was “inactive”.
